These results are taken from PMC2605016 (Structure (London, England : 1993), 2008).

In test [1] the target is calmodulin (recombinant vertebrate CaM) (UniProt P0DP23). The test is described as follows: NMR titration.
For another test, the target named is 15N-CaM (Homo sapiens, UniProt P0DP23). The test is described as follows: NMR titration of 15N-CaM with AQP0 peptides. Details: species or system vertebrate. Conditions: read-out: apparent dissociation constant, secondary binding event (Kd2); resonances from both N- and C-lobes of CaM; fit in XCRVFIT v4.11; 25°C, pH 6.5, Ca^2+; limited number of data points.

In the case of AQP0 Calmodulin Binding Domain peptide, in test [1], the Kd1 (primary binding event, estimated from slow exchange) was below 100 nM and the Kd2 (secondary binding event, apparent) is 6.5 µM.
On to `CC[C@H](C)[C@H](NC(=O)[C@H](CO)NC(=O)[C@H](CC(C)C)NC(=O)[C@H](CCCNC(=N)N)NC(=O)[C@H](CCC(=O)O)NC(=O)[C@H](CO)NC(=O)[C@@H](NC(=O)[C@H](CO)NC(=O)[C@H](CCCCN)NC(=O)[C@H](CC(C)C)NC(=O)[C@H](CCCNC(=N)N)NC(=O)[C@@H]1CCCN1C(=O)[C@H](Cc1ccccc1)NC(=O)[C@@H](N)CC(C)C)C(C)C)C(=O)N[C@@H](CC(C)C)C(=O)N[C@@H](CCCCN)C(=O)NCC(=O)N[C@@H](CO)C(=O)N[C@@H](CCCNC(=N)N)C(=O)N1CCC[C@H]1C(=O)O` [AQP0^CBD], for which the Kd at 15N-CaM was around 6.5 µM.
As to “AQP0^CBD peptide containing a phosphoserine at residue 235”, in test [1], the Kd1 (primary binding event) was found to be 3.5 µM; the Kd2 (secondary binding event, C-lobe residues) came out at 175 µM; the Kd2 (secondary binding event, N-lobe residues) was determined as 33 µM; the stoichiometry N (peptides per CaM) came to 2.
